The values below come from patent US5041142A, “Peroxymetallates and their use as bleach activating catalysts” (Lever Brothers Company, division of Conopco Inc., priority 1990, dated 1991).

A short description of assay [1]: Reactivity with Ragu extract in solution (reaction of Ragu stain and hydrogen peroxide, UV/Vis). To be noted: Time = 100 secs; corrected for the effect of hydrogen peroxide alone.
Assay [2] in a line: Bleaching of tea-stained cloth (BC-1 cloth), reflectance change versus hydrogen peroxide alone. The conditions noted are these: for ΔΔR: room temperature, 5 mM complex and 10 mM hydrogen peroxide, 2 h.

Structures are written as SMILES.

In the case of `CCc1ccncc1.CCc1ccncc1.[O]=[Mo]12([O][O]1)[O][O]2` [MoO5 (C2 H5 C5 H4 N)2, bis(4-ethylpyridine)diperoxomonooxo-molybdenumVI], in assay [1], the “Change Abs 480 nm” value is on record as 0.02. Also, the “lowering of ΔΔR by use of dmf as solvent” value in assay [2] (dmf instead of methanol/acetonitrile mix) is listed as ~ 1 BC-1 unit. Moreover, the figures for the ΔΔR in assay [2] (pH 8), in assay [2] (pH 9) and in assay [2] (pH 10) were 2.2, -0.5 and -2.7, respectively.

Turning to `C[N+](C)(C)CCOC(=O)c1ccncc1.O.[Cl-].[O]=[Mo]12([O][O]1)[O][O]2` [4-cholylpyridinecarboxylatediperoxomonooxomolybdenumVI chloride hydrate], in assay [1], the “Change Abs 480 nm” value is listed as 0.03. Also, the results for the “bleaching (ΔΔR)” value in assay [2] (0.5 mM complex) and in assay [2] (5 mM complex) were 2.1 units and 4.5 BC-1 units, respectively. Also, the “maximum ΔΔR” value in assay [2] (pH 8, 5 mM complex/25° C.) stood at 4.5. The ΔΔR in assay [2] (pH 8) is 4.5; in assay [2] (pH 9), 2.0; in assay [2] (pH 10) it was 3.9.
